Target: purine nucleoside phosphorylase (PNP), E. Coli (Escherichia coli, UniProt P0ABP8)
Assay: PNP inhibition, coupled xanthine oxidase method of Kalckar, inosine as substrate; E. Coli PNP
Assay type: biochemical
Settings: 1 mM inorganic phosphate, 0.1 M HEPES pH 7.4, inosine 0.05-0.15 mM; read-out: Ki, PNP source E. Coli

Sequences of proteins named here, by UniProt entry; tags and fusion partners are left off. Residues count along the entry.
UniProt P0ABP8, 2-239: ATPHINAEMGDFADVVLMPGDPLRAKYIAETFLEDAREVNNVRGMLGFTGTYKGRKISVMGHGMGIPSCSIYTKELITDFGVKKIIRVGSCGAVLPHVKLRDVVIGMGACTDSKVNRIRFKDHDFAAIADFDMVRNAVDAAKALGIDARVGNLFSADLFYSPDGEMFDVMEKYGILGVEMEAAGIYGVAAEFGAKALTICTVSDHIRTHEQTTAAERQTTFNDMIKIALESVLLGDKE

## Nc1nc(O)c2ncn(Cc3ccccc3C(F)C(F)(F)P(=O)(O)O)c2n1 (stereo not shown) [[2-[2-[(2-amino-1,6-dihydro-6-oxo-9H-purin-9-yl)methyl]-phenyl]-1,1,2-trifluoroethyl]phosphonic acid]
  Ki: 0.7 nM
